Here are results for two molecules from patent US20090088380A1, “GHRH ANALOGS AND THERAPEUTIC USES THEREOF” (priority 2007, published 2009).

A short description of series [1]: In vitro proteolysis assay in human plasma. Conditions: IT 0 min.
A further series addresses T1, human GHRH receptor (human, UniProt Q02643).
T1 sequence: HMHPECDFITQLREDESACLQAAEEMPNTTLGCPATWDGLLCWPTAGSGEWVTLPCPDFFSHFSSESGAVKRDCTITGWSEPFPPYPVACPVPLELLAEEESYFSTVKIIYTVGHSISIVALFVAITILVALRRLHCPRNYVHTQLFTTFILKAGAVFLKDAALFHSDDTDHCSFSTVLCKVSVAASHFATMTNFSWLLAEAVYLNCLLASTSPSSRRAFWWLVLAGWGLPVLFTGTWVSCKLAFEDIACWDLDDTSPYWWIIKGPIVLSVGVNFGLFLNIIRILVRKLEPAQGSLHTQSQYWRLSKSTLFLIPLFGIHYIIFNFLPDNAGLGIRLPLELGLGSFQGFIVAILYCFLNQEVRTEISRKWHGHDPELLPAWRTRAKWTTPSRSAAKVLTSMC
Nature of the series: competition with [125I-Tyr10]hGHRH(1-44)NH2, BHK cell membrane preparations expressing the human GHRH receptor. How it is done: ¹²⁵I-GHRH binding assay was performed using [¹²⁵I-Tyr¹⁰]hGHRH(1-44)NH₂ as a radioligand. Competition experiments were done in BHK (baby hamster kidney) 570 cell membrane preparations (25 μg of protein/assay tube) with increasing concentrations (0-1000 nM) of human(h)GHRH(1-29)NH₂, hGHRH(1-44)NH₂ or GHRH analogs, in a total volume of 300 μl of 50 mM Tris-acetate buffer (pH 7.4), containing 5 mM of MgCl₂, 5 mM EDTA and 0.42% BSA. Non specific binding was determined in presence of 1 μM hGHRH(1-29)NH₂. Incubation was carried out at equilibrium (23° C., 60 min) and stopped by centrifugation (12,000 g, 5 min, at 4° C.). The radioactivity content in pellets was determined by gamma counting. The affinity of hGHRH(1-29) NH₂ was tested in each experiment to assess the validity of the assay and determine the relative affinity of the analogs. The ligand computerized program was used to analyze competition curves of GHRH analogs reported in Tables 2 and 3 and to determine their IC50.

As to hGHRH(1-44)NH2 [reference compound], the “Mean residual amount (%)” value in series [1] amounted to 100%.

B1: hGHRH(1-44)NH2 (ligand)
peptide: YADAIFTNSYRKVLGQLSARKLLQDIMSRQQGESNQERGARARL
modifications: C-terminal amide (NH2)
A word on the IC50: it is the concentration needed to halve the response being measured. The molecule B1 showed an IC50 in the series with human GHRH receptor of 5.2 pM.
